Target: D(3) dopamine receptor (Homo sapiens, UniProt P35462)
Assay: Binding affinity at Dopamine D3 receptors in rat striatum by [3H]-spiperone displacement.
Type: tissue-based

Amino acid sequences for entries named in this document (tags omitted).
UniProt P35462, whole entry: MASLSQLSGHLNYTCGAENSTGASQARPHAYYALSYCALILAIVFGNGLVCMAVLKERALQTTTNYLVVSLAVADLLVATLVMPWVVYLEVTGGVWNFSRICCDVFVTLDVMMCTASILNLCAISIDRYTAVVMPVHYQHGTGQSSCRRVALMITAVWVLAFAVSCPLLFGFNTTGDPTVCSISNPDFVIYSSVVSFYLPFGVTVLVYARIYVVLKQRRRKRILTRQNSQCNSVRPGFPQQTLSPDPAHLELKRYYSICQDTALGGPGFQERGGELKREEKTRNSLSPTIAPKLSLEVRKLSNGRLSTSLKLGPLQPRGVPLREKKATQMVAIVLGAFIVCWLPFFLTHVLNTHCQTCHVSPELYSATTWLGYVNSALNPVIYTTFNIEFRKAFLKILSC

## COc1c(C(=O)NCCN2CCN(c3cccc(Cl)c3Cl)CC2)cc(Br)c2ccccc12
  Ki: 8 nM

Reference: ChEMBL document CHEMBL1129096, “4-bromo-1-methoxy-N-[2-(4-aryl-1-piperazinyl)ethyl]-2-naphthalenecarboxamides: Selective dopamine D3 receptor partial agonists” (Bioorg Med Chem Lett, 1996)
